# Reference: US7026334B1, “Thiazolidine compounds and pharmaceutical compositions exhibiting thrombopoietin receptor agonism” (Shionogi & Co., Ltd., priority 1999, dated 2006)
# Amino acid sequences for entries named in this document (tags omitted). Residues count along the entry.
# UniProt P40238, 26-635 limits assumed: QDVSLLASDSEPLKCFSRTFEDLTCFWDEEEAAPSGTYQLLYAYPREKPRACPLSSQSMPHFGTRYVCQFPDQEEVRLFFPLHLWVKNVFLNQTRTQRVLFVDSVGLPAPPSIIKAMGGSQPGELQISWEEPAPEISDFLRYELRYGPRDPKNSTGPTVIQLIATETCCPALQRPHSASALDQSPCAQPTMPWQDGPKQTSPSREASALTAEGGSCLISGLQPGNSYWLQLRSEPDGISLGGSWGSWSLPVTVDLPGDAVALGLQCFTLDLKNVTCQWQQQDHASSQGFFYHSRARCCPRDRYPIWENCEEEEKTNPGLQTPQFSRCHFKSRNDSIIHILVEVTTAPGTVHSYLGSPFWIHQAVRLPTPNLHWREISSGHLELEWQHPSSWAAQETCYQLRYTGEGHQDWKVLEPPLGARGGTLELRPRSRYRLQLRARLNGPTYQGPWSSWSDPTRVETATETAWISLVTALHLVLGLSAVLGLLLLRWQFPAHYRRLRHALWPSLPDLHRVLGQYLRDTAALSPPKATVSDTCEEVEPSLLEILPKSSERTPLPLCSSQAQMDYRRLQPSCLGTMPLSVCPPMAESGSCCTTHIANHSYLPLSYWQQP
# Molecular target: human TPO receptor (hTPOR) (Homo sapiens, UniProt P40238)
# Test: Proliferation of TPO dependent BaF/hTPOR cells (thrombopoietic activity, WST-1)
# Type: cell-based
# Conditions: read-out: ED50, 20 hours + 4 hours WST-1, absorbance at 450 nm, ED50 = half concentration of the concentration showing the maximum thrombopoietic activity
# Text: The TPO dependent BaF/hTPOR cell line which was established by introducing human TPO receptor (hTPOR) into BaF-BO3 cells according to Collins et al (J. Cell. Physiol., 137:293-298 (1988)) was used to test the thrombopoietic activity of the present compound (B-17). The DNA sequences and encoded peptide sequences for human hTPOR have been described by Vigon et al (Proc. Natl. Acad. Sci. USA, 89:5640-5644 (1992)). TPO dose not have any ability to support proliferation of interlukin-3 dependent parental cell line BaF-BO3. BAF/hTPOR cells were maintained in RPMI medium and WEHI-3B conditioned medium as a source of murine interleukin-3 (IL-3). These cells were washed and resuspended in RPMI medium without a source of murine IL-3 and seeded into each well of 96-well microtiter plates at a density of […] cells per well in the absence or presence of various concentration of hTPO or the present compound. After incubation at 37° C. for 20 hours in the 5% CO2 incubator, 10% WST-1 reagent (Takara Biomedicals, Japan) was added to each wells and the cells were further incubated for 4 hours. Table 24 exemplifies the ED50 for tested compounds of the present invention, wherein the ED50 is the half concentration of the concentration showing the maximum thrombopoietic activity
row,Compound,pEC50
1,O=C1NC(=O)/C(=C/c2ccc(C(=O)Nc3nc(-c4ccc(Br)s4)cs3)cc2)S1,7.52
2,CCCCCc1ccc(-c2csc(NC(=O)c3ccc(/C=C4\SC(=S)NC4=O)cc3)n2)cc1,7.68

# pEC50: −log10 of the molar value.
